BindingDB's records for doi:10.1021/jm00107a033 (Virginia Commonwealth University, 1991)

How the values were obtained:
[1] = Binding affinity towards sigma receptor in guinea pig cerebral homogenate using [3H]DTG as radioligand
[2] = Binding affinity towards sigma opioid receptor in guinea pig cerebral homogenate using [3H]DTG as radioligand
[3] = Binding affinity towards sigma opioid receptor was determined in guinea pig cerebral homogenate using [3H]haloperidol as radioligand

C[C@H](Cc1ccccc1)NCC#Cc1ccccc1
Ki [1]: 97 nM

C[C@@H](Cc1ccccc1)N(C)CCc1ccccc1 [Methyl-((S)-1-methyl-2-phenyl-ethyl)-phenethyl-amine]
Ki [2]: 6.6 nM | Ki [3]: 4.8 nM
